# Assay results: patent US9062045B2, “Triazolopyridine compounds” (Novartis AG, priority 2012, dated 2015)
# Chains of the proteins cited; added tags and fusions are not shown. Lines headed by an entry give the natural chain unless they say otherwise; changes in a name come on top.
# UniProt Q14432: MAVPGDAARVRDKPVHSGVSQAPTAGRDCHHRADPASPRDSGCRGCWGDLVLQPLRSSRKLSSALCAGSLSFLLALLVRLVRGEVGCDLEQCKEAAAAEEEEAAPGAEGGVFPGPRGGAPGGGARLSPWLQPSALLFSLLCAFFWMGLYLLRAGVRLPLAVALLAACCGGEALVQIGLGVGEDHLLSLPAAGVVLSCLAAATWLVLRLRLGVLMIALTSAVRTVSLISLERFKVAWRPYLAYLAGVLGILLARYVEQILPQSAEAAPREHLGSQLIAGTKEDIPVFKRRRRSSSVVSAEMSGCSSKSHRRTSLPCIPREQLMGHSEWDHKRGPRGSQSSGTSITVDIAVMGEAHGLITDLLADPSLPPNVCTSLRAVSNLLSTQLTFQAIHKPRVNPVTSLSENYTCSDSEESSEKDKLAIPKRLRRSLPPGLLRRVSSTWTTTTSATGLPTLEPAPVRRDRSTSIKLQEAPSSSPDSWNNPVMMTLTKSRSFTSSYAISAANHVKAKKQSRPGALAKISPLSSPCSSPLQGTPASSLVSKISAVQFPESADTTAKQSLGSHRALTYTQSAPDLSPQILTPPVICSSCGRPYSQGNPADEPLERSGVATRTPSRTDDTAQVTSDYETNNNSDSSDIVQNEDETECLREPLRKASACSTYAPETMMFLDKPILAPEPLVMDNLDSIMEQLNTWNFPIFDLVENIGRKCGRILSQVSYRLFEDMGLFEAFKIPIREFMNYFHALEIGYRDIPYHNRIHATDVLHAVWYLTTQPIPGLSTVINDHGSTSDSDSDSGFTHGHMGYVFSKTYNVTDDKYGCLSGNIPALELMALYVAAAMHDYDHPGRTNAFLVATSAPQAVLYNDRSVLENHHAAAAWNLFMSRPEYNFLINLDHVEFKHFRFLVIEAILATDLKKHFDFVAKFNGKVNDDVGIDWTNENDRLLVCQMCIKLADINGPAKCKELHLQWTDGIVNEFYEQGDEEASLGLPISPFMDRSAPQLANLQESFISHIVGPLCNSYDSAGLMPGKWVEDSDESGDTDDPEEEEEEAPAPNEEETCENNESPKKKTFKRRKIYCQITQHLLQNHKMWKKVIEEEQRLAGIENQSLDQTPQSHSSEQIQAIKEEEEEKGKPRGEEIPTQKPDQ
# pIC50: −log10 of the molar value.
# Biological target: human platelet PDE3 (Homo sapiens (Human), UniProt Q14432)
# Experiment: hPDE3 assay ([3H]cAMP scintillation proximity assay)
# Type: biochemical
row,pIC50,SMILES
1,4.77,"Cn1cc(-c2ccc3nnc(Sc4ccc5ncc(N6CCCC(N)C6)cc5c4)n3c2)cn1 (stereo not shown) [Example 10, 1-(6-(6-(1-Methyl-1H-pyrazol-4-yl)-[1,2,4]triazolo[4,3-a]pyridin-3-ylthio)quinolin-3-yl)piperidin-3-amine]"
2,4.74,"CN1CCN(c2cnc3ccc(Sc4nnc5ccc(-c6cnn(C)c6)cn45)cc3c2)CC1 [Example 74, 3-(4-Methyl-piperazin-1-yl)-6-[6-(1-methyl-1H-pyrazol-4-yl)-[1,2,4]triazolo[4,3-a]pyridin-3-ylsulfanyl]-quinoline]"
3,4.52,"Cn1cc(-c2ccc3nnc(Sc4ccc5ncc(N6CCC(N)CC6)cc5c4)n3c2)cn1 [Example 21, 1-(6-(6-(1-Methyl-1H-pyrazol-4-yl)-[1,2,4]triazolo[4,3-a]pyridin-3-ylthio)quinolin-3-yl)piperidin-4-amine]"

row,SMILES,pIC50
1,"CC1COCCN1c1cnc2ccc(Sc3nnc4ccc(-c5cnn(C)c5)cn34)cc2c1 (stereo not shown) [Example 59, 3-Methyl-4-(6-(6-(1-methyl-1H-pyrazol-4-yl)-[1,2,4]triazolo[4,3-a]pyridin-3-ylthio)quinolin-3-yl)-morpholine]",5.22
